Earlier results as cited in patent US6895396B2, “Neural network methods to predict enzyme inhibitor or receptor ligand potency” (Albert Einstein College of Medicine of Yeshiva University, priority 1998, dated 2005).

Sequences of proteins named here, by UniProt entry; tags and fusion partners are left off. A change or cut given only in a name is not applied to a line headed by its entry.
UniProt P0ABF6: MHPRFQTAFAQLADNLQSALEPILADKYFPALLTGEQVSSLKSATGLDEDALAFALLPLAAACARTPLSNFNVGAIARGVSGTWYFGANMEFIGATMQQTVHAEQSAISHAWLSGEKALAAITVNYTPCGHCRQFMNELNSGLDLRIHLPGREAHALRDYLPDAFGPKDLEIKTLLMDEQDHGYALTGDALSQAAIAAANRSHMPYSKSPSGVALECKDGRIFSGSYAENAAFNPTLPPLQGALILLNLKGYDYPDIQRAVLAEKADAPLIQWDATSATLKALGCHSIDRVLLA

Biological target: cytidine deaminase (Escherichia coli, UniProt P0ABF6)
Conditions: binding free energy from the literature; cited from earlier work

| SMILES | ΔG/RT (experimental) |
| --- | --- |
| O=C1CCN([C@@H]2O[C@H](CO)[C@@H](O)[C@H]2O)C(=O)N1 [3,4,5,6-tetrahydrouridine] | −16 |
| O=C1CCN([C@@H]2O[C@H](CO)[C@@H](O)[C@H]2O)C(=O)N1 [5,6-dihydrouridine] | −5.7 |
